Assay results taken from BindingDB's records for doi:10.1021/jm9508853 (University of Maryland, 2021).

Biological target: B-cell lymphoma 6 protein (Homo sapiens, UniProt P41182)
Experiment: Inhibition of human BCL6 BTP domain measured by fluorescence polarization assay

Cn1c(=O)n(C)c2cc(Nc3ccnc(Cl)c3C#N)ccc21
pIC50: 4.96

pIC50: −log10 of the molar value.
